Experimental data reported in patent US10669273B2, “Use of aza-tryptanthrin derivatives as inhibitors of IDO1 and/or TDO” (Peking University, priority 2016, dated 2020).

Amino acid sequences for entries named in this document (tags omitted).
UniProt P14902, whole entry: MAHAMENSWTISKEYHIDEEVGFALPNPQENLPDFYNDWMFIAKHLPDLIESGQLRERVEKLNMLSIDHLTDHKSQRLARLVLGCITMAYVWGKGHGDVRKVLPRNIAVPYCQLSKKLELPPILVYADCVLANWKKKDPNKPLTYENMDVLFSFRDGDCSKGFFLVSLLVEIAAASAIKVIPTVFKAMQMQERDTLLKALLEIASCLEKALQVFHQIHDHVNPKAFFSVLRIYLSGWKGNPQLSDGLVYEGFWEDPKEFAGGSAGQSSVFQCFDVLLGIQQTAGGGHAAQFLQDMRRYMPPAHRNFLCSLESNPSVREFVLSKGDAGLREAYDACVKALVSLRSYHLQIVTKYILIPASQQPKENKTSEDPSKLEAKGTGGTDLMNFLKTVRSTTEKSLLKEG

Biological target: IDO-1 (Homo sapiens (Human), UniProt P14902)
Experiment: Indoleamine-2,3-dioxygenase 1 inhibitory activity (absorbance at 321 nm)
Format: biochemical
Conditions: read-out: Comparison of inhibitory activity of the IDO1, IC50; Table 1, comparison with tryptanthrins 5a, 5b, 5c, 5i

O=C1c2cc([N+](=O)[O-])ccc2-n2c1nc1ccccc1c2=O
IC50: 100 to 1000 nM

O=C1c2cc(F)ccc2-n2c1nc1ccccc1c2=O
IC50: 100 to 1000 nM
